Laboratory results as given in patent publication US7759499B2, “Compounds as inhibitors of hepatitis C virus NS3 serine protease” (Schering Corporation, priority 2004, dated 2010).

By UniProt entry, the sequences of proteins in these tests, tags left out. Residues count along the entry.
UniProt P27958, 1027-1657: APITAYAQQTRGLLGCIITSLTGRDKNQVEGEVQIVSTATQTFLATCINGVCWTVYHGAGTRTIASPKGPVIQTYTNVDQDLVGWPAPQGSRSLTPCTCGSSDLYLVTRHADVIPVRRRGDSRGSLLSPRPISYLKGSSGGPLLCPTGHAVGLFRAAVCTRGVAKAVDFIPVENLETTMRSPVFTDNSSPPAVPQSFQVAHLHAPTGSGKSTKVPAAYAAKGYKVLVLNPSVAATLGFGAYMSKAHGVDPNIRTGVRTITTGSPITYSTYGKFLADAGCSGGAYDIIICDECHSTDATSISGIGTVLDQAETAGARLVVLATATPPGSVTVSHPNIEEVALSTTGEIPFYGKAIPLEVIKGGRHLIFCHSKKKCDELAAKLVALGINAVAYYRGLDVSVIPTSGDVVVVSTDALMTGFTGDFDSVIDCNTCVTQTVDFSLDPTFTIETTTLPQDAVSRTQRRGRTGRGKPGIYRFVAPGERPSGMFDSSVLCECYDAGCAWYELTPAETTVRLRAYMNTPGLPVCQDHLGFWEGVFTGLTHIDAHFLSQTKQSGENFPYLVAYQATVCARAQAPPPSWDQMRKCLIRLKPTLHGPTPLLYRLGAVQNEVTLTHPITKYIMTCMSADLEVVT
UniProt P27958, 1658-1711: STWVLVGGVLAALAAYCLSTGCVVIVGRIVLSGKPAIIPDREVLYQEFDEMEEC

molecular target: Recombinant heterodimeric HCV NS3/NS4A protease (strain 1a) (Hepatitis C virus genotype 1a, UniProt P27958); assay: Spectrophotometric assay for HCV protease inhibitory activity; type: biochemical; conditions: Table 1, range

**Q.** How did the Ki turn out when `C=CCNC(=O)C(=O)C(CC1CC1)NC(=O)[C@@H]1[C@@H]2[C@H](CN1C(=O)[C@@H](NC(=O)N[C@H](CN(C)S(=O)(=O)N(C)C)C(C)C)C(C)(C)C)C2(C)C` (some centres unmarked) [Compound 10066] was run?
**A.** ≤ 0.075 µM

**Q.** `C=CCNC(=O)C(=O)[C@@H](CCC)NC(=O)[C@@H]1[C@@H]2[C@H](CN1C(=O)[C@@H](NC(=O)N[C@H](CN(C)S(=O)(=O)N(C)C(=O)OCc1ccccc1)C(C)(C)C)C(C)(C)C)C2(C)C` [Compound 10024] was tested. Which Ki did it give?
**A.** ≤ 0.075 µM

**Q.** With `C=CCNC(=O)C(=O)C(CCCC)NC(=O)[C@@H]1[C@@H]2[C@H](CN1C(=O)[C@@H](NC(=O)N[C@H](CN(C)S(=O)(=O)N(C)C)C(C)C)C(C)(C)C)C2(C)C` (some centres unmarked) [Compound 10065] as the compound, how does the Ki read?
**A.** ≤ 0.075 µM

**Q.** `C#CCCC(NC(=O)[C@@H]1[C@@H]2[C@H](CN1C(=O)[C@@H](NC(=O)N[C@H](CN(C)S(=O)(=O)N1CCCCC1)C(C)(C)C)C(C)(C)C)C2(C)C)C(=O)C(N)=O` (some centres unmarked) [Compound 10045] was tested. Which Ki did it give?
**A.** ≤ 0.075 µM

**Q.** `C=CCNC(=O)C(=O)C(CC1CC1)NC(=O)[C@@H]1[C@@H]2[C@H](CN1C(=O)[C@@H](NC(=O)N[C@H](CN(C)S(=O)(=O)N1CCCCC1)C(C)(C)C)C(C)(C)C)C2(C)C` (some centres unmarked) [Compound 10069] was tested. Which Ki did it give?
**A.** ≤ 0.075 µM

**Q.** Which Ki does the source give for `C=CCNC(=O)C(=O)C(CCC)NC(=O)[C@@H]1[C@@H]2[C@H](CN1C(=O)[C@@H](NC(=O)N[C@H](CN(C)S(=O)(=O)N1CCCC1)C(C)(C)C)C1CCCCC1)C2(C)C` (some centres unmarked) [Compound 10044] here?
**A.** ≤ 0.075 µM

**Q.** For `CN(C)S(=O)(=O)NC[C@@H](NC(=O)N[C@H](C(=O)N1C[C@H]2[C@@H]([C@H]1C(=O)NC(CC1CC1)C(=O)C(N)=O)C2(C)C)C(C)(C)C)C(C)(C)C` (some centres unmarked) [Compound 10038], which Ki is on record?
**A.** ≤ 0.075 µM

**Q.** `C=CCNC(=O)C(=O)C(CC1CC1)NC(=O)[C@@H]1[C@@H]2[C@H](CN1C(=O)[C@@H](NC(=O)N[C@H](CN(C)S(=O)(=O)N(C)C)C(C)(C)C)C1CCCCC1)C2(C)C` (some centres unmarked) [Compound 10073] was tested. Which Ki did it give?
**A.** ≤ 0.075 µM

same assay, conditions: Table 2, range

**Q.** How did the Ki turn out when `C=CCNC(=O)C(=O)C(CCCC)NC(=O)[C@@H]1[C@@H]2[C@H](CN1C(=O)[C@@H](NC(=O)N[C@H](CN(CC1CC1)S(=O)(=O)c1cccs1)C(C)(C)C)C(C)(C)C)C2(C)C` (some centres unmarked) [Compound 11244] was run?
**A.** ≤ 0.075 µM

**Q.** With `CC(C)[C@@H](CN(CC1CC1)S(=O)(=O)c1ccccc1)NC(=O)N[C@H](C(=O)N1C[C@H]2[C@@H]([C@H]1C(=O)NC(CC1CCC1)C(=O)C(N)=O)C2(C)C)C(C)(C)C` (some centres unmarked) [Compound 11011] as the compound, how does the Ki read?
**A.** ≤ 0.075 µM

**Q.** Which Ki does the source give for `CC(C)(C)[C@H](NC(=O)NC1(Cc2ccccn2)CCCN(S(C)(=O)=O)C1)C(=O)N1C[C@H]2[C@@H]([C@H]1C(=O)NC(CC1CC1)C(=O)C(N)=O)C2(C)C` (some centres unmarked) [Compound 11014] here?
**A.** > 0.25 µM

**Q.** With `CCCCC(NC(=O)[C@@H]1[C@@H]2[C@H](CN1C(=O)[C@@H](NC(=O)N[C@H](CN(C)S(=O)(=O)CC)C(C)(C)C)C1(C)CCCCC1)C2(C)C)C(=O)C(=O)NCC` (some centres unmarked) [Compound 11359] as the compound, how does the Ki read?
**A.** ≤ 0.075 µM

**Q.** How did the Ki turn out when `C#CCCC(NC(=O)[C@@H]1[C@@H]2[C@H](CN1C(=O)[C@@H](NC(=O)N[C@H](CN(C)S(=O)(=O)CC)C(C)(C)C)C1(C)CCCCC1)C2(C)C)C(=O)C(=O)NCC=C` (some centres unmarked) [Compound 11329] was run?
**A.** ≤ 0.075 µM

**Q.** With `C=CCNC(=O)C(=O)C(CC1CCC1)NC(=O)[C@@H]1[C@@H]2[C@H](CN1C(=O)[C@@H](NC(=O)N[C@H](CN(CC)S(=O)(=O)c1cccs1)C(C)(C)C)C(C)(C)C)C2(C)C` (some centres unmarked) [Compound 11220] as the compound, how does the Ki read?
**A.** ≤ 0.075 µM

**Q.** How did the Ki turn out when `C=CCNC(=O)C(=O)C(CCCC)NC(=O)[C@@H]1[C@@H]2[C@H](CN1C(=O)[C@@H](NC(=O)N[C@H](CN(C)S(=O)(=O)C1CC1)CC(C)(C)C)C(C)(C)C)C2(C)C` (some centres unmarked) [Compound 11096] was run?
**A.** 0.075 to 0.25 µM

**Q.** For `C#CCCC(NC(=O)[C@@H]1[C@@H]2[C@H](CN1C(=O)[C@@H](NC(=O)NC[C@@H](N(C)S(=O)(=O)c1ccccc1)C(C)(C)C)C(C)(C)C)C2(C)C)C(=O)C(=O)NCC=C` (some centres unmarked) [Compound 11313], which Ki is on record?
**A.** > 0.25 µM

**Q.** For `C=CCNC(=O)C(=O)C(CCCC)NC(=O)[C@@H]1[C@@H]2[C@H](CN1C(=O)[C@@H](NC(=O)N[C@H](CN(C(C)C)S(C)(=O)=O)C(C)(C)C)C(C)(C)C)C2(C)C` (some centres unmarked) [Compound 11182], which Ki is on record?
**A.** ≤ 0.075 µM

**Q.** For `C#CCCC(NC(=O)[C@@H]1[C@@H]2[C@H](CN1C(=O)[C@@H](NC(=O)N[C@H](CN(C)S(=O)(=O)c1cccs1)C(C)(C)C)C(C)(C)C)C2(C)C)C(=O)C(=O)NCC=C` (some centres unmarked) [Compound 11127], which Ki is on record?
**A.** ≤ 0.075 µM

**Q.** How did the Ki turn out when `CCCC(NC(=O)[C@@H]1[C@@H]2[C@H](CN1C(=O)[C@@H](NC(=O)N[C@H](CN(C)S(C)(=O)=O)C(C)(C)C)C1Cc3ccccc3C1)C2(C)C)C(=O)C(N)=O` (some centres unmarked) [Compound 11191] was run?
**A.** ≤ 0.075 µM

**Q.** `C=CCNC(=O)C(=O)C(CCC)NC(=O)[C@@H]1C[C@@H](Cl)CN1C(=O)[C@@H](NC(=O)N[C@H](CN(C)S(C)(=O)=O)C(C)(C)C)C1CCCCC1` (some centres unmarked) [Compound 11163] was tested. Which Ki did it give?
**A.** ≤ 0.075 µM

**Q.** How did the Ki turn out when `C=CCNC(=O)C(=O)C(CC1CC1)NC(=O)[C@@H]1[C@@H]2[C@H](CN1C(=O)[C@@H](NC(=O)N[C@H](CN(C)S(C)(=O)=O)C(C)(C)C)C1Cc3ccccc3C1)C2(C)C` (some centres unmarked) [Compound 11261] was run?
**A.** ≤ 0.075 µM

**Q.** For `C=CCNC(=O)C(=O)C(CC1CCC1)NC(=O)[C@@H]1[C@@H]2[C@H](CN1C(=O)[C@@H](NC(=O)NC[C@@H](N(C)S(=O)(=O)c1ccccc1)C(C)(C)C)C1CCCCC1)C2(C)C` (some centres unmarked) [Compound 11300], which Ki is on record?
**A.** > 0.25 µM

**Q.** `Cc1nc(C)c(S(=O)(=O)N(C)C[C@@H](NC(=O)N[C@H](C(=O)N2C[C@H]3[C@@H]([C@H]2C(=O)NC(CC2CCC2)C(=O)C(N)=O)C3(C)C)C(C)(C)C)C2CCCCC2)s1` (some centres unmarked) [Compound 11162] was tested. Which Ki did it give?
**A.** ≤ 0.075 µM

same assay, conditions: Table 3, range

**Q.** With `CC(C)[C@@H](CNS(=O)(=O)c1cccs1)NC(=O)N[C@H](C(=O)N1C[C@H]2[C@@H]([C@H]1C(=O)NC(CC1CC1)C(=O)C(N)=O)C2(C)C)C(C)(C)C` (some centres unmarked) [Compound 12013] as the compound, how does the Ki read?
**A.** ≤ 0.075 µM

**Q.** How did the Ki turn out when `C=CCNC(=O)C(=O)C(CC1CC1)NC(=O)[C@@H]1[C@@H]2[C@H](CN1C(=O)[C@@H](NC(=O)NC1(CNS(C)(=O)=O)CCCCC1)C(C)(C)C)C2(C)C` (some centres unmarked) [Compound 12002] was run?
**A.** ≤ 0.075 µM

same assay, conditions: Table 4, range

**Q.** How did the Ki turn out when `CN(C[C@@H](NC(=O)N[C@H](C(=O)N1C[C@H]2[C@@H]([C@H]1C(=O)NC(CC1CC1)C(=O)C(N)=O)C2(C)C)C(C)(C)C)C(C)(C)C)C(=O)c1ccccc1` (some centres unmarked) [Compound 13025] was run?
**A.** ≤ 0.075 µM

**Q.** Which Ki does the source give for `CC(C)(C)[C@H](NC(=O)N[C@H](CNC(=O)C(F)(F)F)C(C)(C)C)C(=O)N1C[C@H]2[C@@H]([C@H]1C(=O)NC(CC1CC1)C(=O)C(N)=O)C2(C)C` (some centres unmarked) [Compound 13020] here?
**A.** ≤ 0.075 µM

same assay, conditions: Table 5, range

**Q.** Which Ki does the source give for `CN(C[C@@H](NC(=O)N[C@H](C(=O)N1C[C@H]2[C@@H]([C@H]1C(=O)NC(CC1CCC1)C(=O)C(N)=O)C2(C)C)C(C)(C)C)C1CCCCC1)C(=O)OC(C)(C)C` (some centres unmarked) [Compound 14050] here?
**A.** > 0.25 µM

**Q.** For `C=CCNC(=O)C(=O)C(CC1CC1)NC(=O)[C@@H]1[C@@H]2[C@H](CN1C(=O)[C@@H](NC(=O)N[C@H](CNC(=O)OC)C(C)C)C(C)(C)C)C2(C)C` (some centres unmarked) [Compound 14022], which Ki is on record?
**A.** ≤ 0.075 µM

same assay, conditions: Table 5A, range

**Q.** With `CCCCC(NC(=O)[C@@H]1[C@@H]2[C@H](CN1C(=O)[C@@H](NC(=O)N[C@H](CN(C)S(=O)(=O)CC)C1(C)CCCCC1)C1Cc3ccccc3C1)C2(C)C)C(=O)C(=O)NC1CC1` (some centres unmarked) [Compound 11424] as the compound, how does the Ki read?
**A.** ≤ 0.075 µM

**Q.** With `CCCCC(NC(=O)[C@@H]1[C@@H]2[C@H](CN1C(=O)[C@@H](NC(=O)N[C@H](CN(C)S(=O)(=O)c1ccccn1)C(C)(C)C)C1Cc3ccccc3C1)C2(C)C)C(=O)C(=O)NCC` (some centres unmarked) [Compound 11396] as the compound, how does the Ki read?
**A.** ≤ 0.075 µM

**Q.** For `C=CCNC(=O)C(=O)C(CCC)NC(=O)[C@@H]1[C@@H]2[C@H](CN1C(=O)[C@@H](NC(=O)N[C@H](CN(C)S(=O)(=O)c1cccnc1)C(C)(C)C)C(C)(C)C)C2(C)C` (some centres unmarked) [Compound 11406], which Ki is on record?
**A.** ≤ 0.075 µM
